Reference: PubChem BioAssay AID487 (Columbia University Molecular Screening Center, 2006)
The entries are a selection whose mix differs from that of the whole data set. Calls of active or inactive are those of the source.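 The calls were made as follows: active = visually confirmed hit in the image check and inhibition above 20%; inconclusive = visually confirmed hit but inhibition not above 20%; inactive = no visual hit in the image check.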

Experiment: endothelial E-selectin expression blockers – imaging, HUVEC, immunofluorescence, MLSMR starter and 10KST1 sets, primary screen (AID 487);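 also: signal is fraction of cell area covered by stained E-selectin grains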
Conditions: HUVEC TNFalpha-induced E-selectin immunofluorescence imaging; at 2 µM; hits give high values

Which inhibition does the source give for `Fc1ccccc1NC1CCN(Cc2ccccc2)CC1` here?
The inhibition was inactive: -172%.
